## Antibody variant affinities, Ab-14 light chain, assay 1

The target is the same throughout: PDVDLGDISGINAS, from the HR2 region of SARS-CoV-2 spike.

Parent scFv Ab-14: VH joined to VL by a 15-residue (Gly4Ser)3 linker. Changes lie in the light chain CDRs alone.
VH: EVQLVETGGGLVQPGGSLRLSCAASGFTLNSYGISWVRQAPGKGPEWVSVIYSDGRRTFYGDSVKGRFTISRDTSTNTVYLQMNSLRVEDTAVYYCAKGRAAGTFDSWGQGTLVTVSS
VL: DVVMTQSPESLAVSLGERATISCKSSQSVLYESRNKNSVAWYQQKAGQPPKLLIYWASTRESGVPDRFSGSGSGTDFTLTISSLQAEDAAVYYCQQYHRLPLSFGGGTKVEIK

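The parent was found by panning a naive human phage display library on the peptide. In library AAYL50, one, two or three CDR residues were substituted; doubles and triples were drawn at random. The assay is AlphaSeq: two haploid yeast populations carry antibody and antigen on their surface. Pairs that bind mate more often; barcode pairs of the diploids are counted by sequencing. Read counts were normalised to the haploid input and turned into Kd by a linear fit to BCL2-family pairs of known affinity, for each replicate. Each pool was mated in three replicate cultures.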

Variants are written as CDR1, CDR2 and CDR3 of the light chain (limits as in the source). Parent: KSSQSVLYESRNKNSVA, WASTRES, QQYHRLPLS. Scale: log10 of Kd in nM, estimated from mating counts; low values are strong binders. Replicates are averaged; those with no signal do not enter the mean. Where no diploid with the target was found in that replicate, the entry reads "ND": below detection, most likely a poor binder, though not proof of it.

| # | CDR-L1 | CDR-L2 | CDR-L3 | replicates, log10 nM | log10 Kd (nM), mean | signal with controls |
|---|---|---|---|---|---|---|
| 1 | KCSQSVLIESRNKNSVA | WASTRES | QQYERLPLS | 0.44 0.88 0.63 | 0.65 | 1 of 9 (4.65) |
| 2 | KKSQSVLYESRNKNSVA | WASTRES | QQYHRLWLA | 3.26 ND ND | 3.26 | 0 of 9 |
| 3 | KSSQSVLYESRNKTNVA | WASTRES | QQYHRLPSS | 5.20 ND ND | 5.20 | 1 of 9 (3.21) |
| 4 | KVSQSVLYESRNKNSVV | WASTRES | QQYHRLPLQ | 3.84 ND 3.52 | 3.68 | 1 of 9 (4.16) |
| 5 | KSSQSLLYEIQNKNSVA | WASTRES | QQYHRLPLS | 2.34 2.64 2.89 | 2.62 | 1 of 9 (2.98) |
| 6 | KSGQSVLYESRNKNSVA | WQSTRES | QQYHPLPLS | 3.06 2.76 2.84 | 2.89 | 1 of 9 (5.19) |
| 7 | KSSQSVLYESRFKNSVA | WESFRES | QQYHRLPLS | ND 3.21 ND | 3.21 | 0 of 9 |
| 8 | KSSGSVLYENRNKNSVA | WANTRES | QQYHRLPLS | 3.19 2.77 2.64 | 2.87 | 1 of 9 (3.27) |
| 9 | KSSQSVHYESRNKNSVA | WRSTRES | QQYHRLPWS | ND ND ND | ND | 5 of 9 (4.94) |
| 10 | KSSQSVLYESRNKHSVA | WASTRES | QQYTLLPLS | 1.76 1.51 2.22 | 1.83 | 2 of 9 (3.66) |
| 11 | KSSQSVQGETRNKNSVA | WASTRES | QQYHRLPLS | 0.24 0.38 0.18 | 0.27 | 3 of 9 (4.60) |
| 12 | KSSQSVLYESRNKNSVA | WASTSEI | QQYHRLPGS | 3.22 3.19 3.19 | 3.20 | 4 of 9 (3.90) |
| 13 | KSSYSVLYESRNKDSVA | WASTRES | QQYHRLPLN | ND ND ND | ND | 0 of 9 |
| 14 | KSSQSVLYESRNKFRVA | WASTRES | QMYHRLPLS | 3.72 ND 3.07 | 3.40 | 0 of 9 |
| 15 | KSSQSVDYESRFKNSVA | MASTRES | QQYHRLPLS | 0.32 0.62 0.53 | 0.49 | 2 of 9 (3.97) |
| 16 | RSSQSVLYYSRNKNSVA | WASTRES | QQYHRLKLS | ND ND ND | ND | 0 of 9 |
| 17 | KSSMSVLYESTNKNSVA | WASTRES | QQYARLPLS | 0.42 0.60 0.39 | 0.47 | 3 of 9 (4.95) |
| 18 | KSSISVLHENRNKNSVA | WASTRES | QQYHRLPLS | 0.68 0.96 0.80 | 0.81 | 1 of 9 (3.73) |
| 19 | KSSQQVLYESRNKTSVA | WASTREN | QQYHRLPLS | 3.84 4.50 ND | 4.17 | 3 of 9 (4.71) |
| 20 | KSSQSVLYPSRNKNSVA | WASTRES | QQYHRTPHS | ND ND ND | ND | 1 of 9 (4.20) |
| 21 | KSVQSVLYEGRWKNSVA | WASTRES | QQYHRLPLS | 1.74 1.87 2.43 | 2.01 | 1 of 9 (3.20) |
| 22 | KSSQSVQYNSRNKNSVA | WASRRES | QQYHRLPLS | 3.46 4.29 4.53 | 4.09 | 5 of 9 (4.01) |
| 23 | KSSQSCKYCSRNKNSVA | WASTRES | QQYHRLPLS | 2.88 2.09 2.92 | 2.63 | 3 of 9 (4.60) |
| 24 | KSSQSVLYESRNKNSVA | WASTRES | QQYHCLYLE | ND ND ND | ND | 1 of 9 (3.84) |
| 25 | KASQSVLYESRNKNSVA | WASTRES | QQYHRLALS | 0.64 0.80 0.67 | 0.70 | 3 of 9 (5.18) |
| 26 | KSSQSVNYESRNKNSVA | WASTRES | QQGHVLPLS | ND ND ND | ND | 1 of 9 (3.34) |
| 27 | KSSQVVLYESRNKNSVA | WAGGRES | QQYHRLPLS | 4.81 5.30 4.87 | 4.99 | 3 of 9 (4.29) |
| 28 | KSSCSVLYESRNKNSVA | WASARES | QQYHRLPLS | 2.49 2.30 2.25 | 2.35 | 4 of 9 (4.22) |
| 29 | KSSQSVLYESRNKNSVA | WASTFEQ | QQYHDLPLS | ND ND ND | ND | 2 of 9 (4.60) |
| 30 | RSSQSVLYESRNKNSVA | WASTREK | QQYHRLGLS | 2.58 1.97 2.79 | 2.44 | 4 of 9 (3.31) |
| 31 | KSSQLVLYESRNKNSVA | WASTRES | QQYHFLPLS | ND 2.69 3.73 | 3.21 | 6 of 9 (4.12) |
| 32 | KSSQVVLYESRNKNSVA | WASTREC | QQYHTLPLS | 2.43 2.86 2.40 | 2.57 | 0 of 9 |
| 33 | KSSQSVLYESRNKNSVA | WASTREK | QQIHRLPLS | ND ND ND | ND | 1 of 9 (3.79) |
| 34 | KSSQSVLYESRNKNSVA | WASTRES | QQYHLLPLS | 0.98 1.18 1.22 | 1.13 | 3 of 9 (4.26) |
| 35 | KSSQSVLYESRNKNSVA | WASTRES | QQYHRLKLS | ND ND ND | ND | 2 of 9 (2.84) |
| 36 | KSNQDGLYESRNKNSVA | WASTRES | QQYHRLPLS | 0.42 0.64 0.52 | 0.53 | 4 of 9 (4.65) |
| 37 | KSSQSVLYESRNKCAVA | WASTRES | QQYHRLPLS | 3.84 ND 5.86 | 4.85 | 1 of 9 (4.53) |
| 38 | RSSQSVLYESRNKNSVA | WASTRES | NHYHRLPLS | 2.84 ND 2.02 | 2.43 | 2 of 9 (3.82) |
| 39 | KSSQSVLYESRNANSRA | WASTRES | QQYHRLWLS | ND ND ND | ND | 2 of 9 (4.01) |
| 40 | KSSCSVLYESRNKNDVA | WASTRES | QQYHRLPLS | 2.52 2.41 2.74 | 2.56 | 2 of 9 (3.61) |
| 41 | KSSQSVLYESRNKNYQA | WASTRES | QGYHRLPLS | ND ND 4.63 | 4.63 | 3 of 9 (3.90) |
| 42 | KSSQSVLYEERNKNSVA | WASTRES | QDYHRDPLS | 1.11 1.24 1.28 | 1.21 | 3 of 9 (5.22) |
| 43 | KSSISVHYESRNKNSVA | WASTRES | QHYHRLPLS | 0.65 0.93 0.65 | 0.74 | 0 of 9 |
| 44 | KSSQWVLYESRNKNSVA | WASTRES | QQYMRLPLS | ND ND ND | ND | 1 of 9 (5.56) |
| 45 | KSSQFVLYESRNKNSVA | WASTRIS | QYYHRLPLS | ND ND ND | ND | 0 of 9 |
| 46 | KSSQSVLYESRNLNSMA | WASTRES | QQYHRHPLS | ND ND ND | ND | 2 of 9 (5.49) |
| 47 | KSSQSVLYEHRNKNSVA | WASTRES | RQYHRLPSS | ND 4.49 4.27 | 4.38 | 3 of 9 (4.36) |
| 48 | KPSQSVLYESRNKNSVA | WASRTES | QQYHRLPLS | ND ND ND | ND | 1 of 9 (3.29) |

In this assay the parent's reference entry averaged 0.65; its copy inside this library read 1.68. As a blank, each scFv also met three strains without target: over library AAYL50, 18% of these pairings were detected, typically at 4.19 and seldom below 2.99. Also given: how often the same scFv was detected with the empty control strains, with their mean in brackets.

Data: MIT Lincoln Laboratory AlphaSeq set, Engelhart et al. 2022, doi:10.1038/s41597-022-01779-4, as distributed in FLAb.